## Yeast mating assay B: variants of the scFv Ab-14

From the AlphaSeq antibody data of Li et al. 2023 (doi:10.1038/s41467-023-39022-2), copy in the FLAb collection.

The target is the same throughout: PDVDLGDISGINAS, from the HR2 region of SARS-CoV-2 spike.

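This is the validation round: designs drawn from the data on random variants, tested in the same kind of assay. Group labels follow the data file (Ctrl: baseline library sampled from a position-specific scoring matrix, with some repeated check sequences; Rand: our label for a block that the file lists under HC and that is probably the random mutants of the ten best first-round binders; En: ensemble of fine-tuned language models; GP: Gaussian process model; GPLM: also part of the Gaussian process libraries; HC: hill climbing; Gen: genetic algorithm; Gibbs: Gibbs sampling; a sequence that several methods proposed may carry one label only). The assay is AlphaSeq: two haploid yeast populations carry antibody and antigen on their surface. After mating in shaken culture at 30 °C for 16 h, diploids were selected and their barcode pairs sequenced. Scores were corrected for input abundance and mapped to Kd with protein pairs of known affinity run in the same pool. There are six technical replicates.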

Parent scFv Ab-14: VH joined to VL by a (GGGGS)3 linker. Changes lie in the heavy chain CDRs alone.
VH: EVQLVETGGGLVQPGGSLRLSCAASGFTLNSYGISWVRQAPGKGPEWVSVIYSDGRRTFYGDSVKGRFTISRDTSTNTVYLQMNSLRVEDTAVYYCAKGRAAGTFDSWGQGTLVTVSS
VL: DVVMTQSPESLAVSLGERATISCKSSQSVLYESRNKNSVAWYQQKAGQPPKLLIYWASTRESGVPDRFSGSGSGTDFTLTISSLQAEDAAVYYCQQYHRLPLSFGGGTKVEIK

Variants are written as CDR1, CDR2 and CDR3 of the heavy chain (limits as in the source). Parent: GFTLNSYGIS, VIYSDGRRTFYGDSVK, GRAAGTFDS.
Affinities are written as log10 Kd with Kd in nM; a lower number is a better binder.
Replicates are averaged; those with no signal do not enter the mean.
"nd" means that the variant was in the library but no mating with the target was seen in any replicate; the authors take this as a sign of poor binding, and no number exists.
Empty control strains, which show no peptide, gave a signal in 1% of pairings with all heavy chain designs; the median was 2.08 and 95% of these signals were weaker than 0.84. No background was subtracted.
A sequence measured in both rounds can read differently, since the two assays cover different ranges.
In the paper, a design with two or fewer of six values counts as a poor binder.

GFTLNSYGIS, VIYSDGRRTFYGDSVK, RRAAGTLDS [Ctrl]: 0.82 (1 of 6 replicates).
GFDLNEYGIS, VIYADGIRTAYADNVK, GNVAGTFDV [En_Gen]: -0.45 (6 of 6 replicates).
GFTLNEYGIS, VIYSDGRRTFYGDSVK, GKTAGTFDL [GP_Gibbs]: 0.39 (6 of 6 replicates).
GFDLNEYGIS, VIYADGMRTQYADSVK, GNNAGTFDV [En_Gen]: 1.61 (6 of 6 replicates).
GFDLNEYGIS, VIYADGRRTSYIDSVK, GEIAGTFNV [En_HC]: 0.78 (6 of 6 replicates).
GFWLNEYGIS, VIYSDGRRTFYGDSVK, GQAAGTFDR [GP_Gen]: 2.19 (1 of 6 replicates).
GFSLNEYGIS, VIYSDGRRTFYTDDVK, GEAAGTFKS [GP_HC]: 0.10 (6 of 6 replicates).
GATLNSYGGS, VIYSDGRRTFYGDSVK, GRAAGTFDS [Ctrl]: 2.14 (1 of 6 replicates).
GFSLNSYGIS, VIYSDGRRTFYGDSVK, GRTAGTFDC [GPLM_Gen]: nd (0 of 6 replicates).
GFDLNEYGIS, VIYADGQRTAYSDSVK, GETAGTFDV [En_Gen]: -1.02 (6 of 6 replicates).
GKSLDEYGIS, VIYADGLRSVYANSVK, GQFDDAMDL [En_Gibbs]: nd (0 of 6 replicates).
GFTLNSYGVS, VIYSDGRRTFYGDSVK, GRAAGTFSE [Ctrl]: 1.80 (3 of 6 replicates).
GFDLLEYGIS, VIYADGSRVAYANNVK, GKNNAIGSN [En_Gibbs]: nd (0 of 6 replicates).
GFSLNSYGIS, VIYSDGRRTFYSDSVK, GNAAGTFDL [GP_Gibbs]: -0.39 (6 of 6 replicates).
KFQLNEYGIS, VIYSDGRRTFYTDSVK, GRCAGTFDS [GP_HC]: nd (0 of 6 replicates).
YFNLNSYGIS, VIYSDGRRTFYADSVK, GRQAGTFDS [GP_Gen]: 1.95 (6 of 6 replicates).
GFELNSYGIS, VIYSDGRRTFYADHVK, GRTAGTFDS [GP_Gen]: 0.86 (6 of 6 replicates).
GFDLNEYGIS, VIYADGMRTVYADSVK, GSNAGTFDV [En_Gen]: 0.05 (6 of 6 replicates).
GFTLNEYGIS, VIYSDGIRTFYTDSVK, GRFAGTFDS [GPLM_HC]: 0.11 (5 of 6 replicates).
GFSLNSYGIS, VIYSDGRRTFYGDSVK, GQLAGTFDT [GP_Gibbs]: 0.28 (6 of 6 replicates).
GFDLNEYGIS, VIYADGSRTAYADNVK, GQVAGTFDV [En_Gen]: 0.36 (6 of 6 replicates).
GFTLNSYGIS, VIYSDGRRTFYGDKVK, GEAAGIFDS [Ctrl]: 4.40 (1 of 6 replicates).
GFSLNSYGIS, VIYSDGRRTFYGDDVK, GVTAGTFDS [GP_Gibbs]: 0.22 (6 of 6 replicates).
GNTLNSYGIQ, VIYSDGRRTFYGDSVK, GRAAGTFDS [Ctrl]: 1.38 (6 of 6 replicates).
GFTLNEYGIV, VIYSDKRRTHYTDSVK, GRFANTFDS [Rand]: nd (0 of 6 replicates).
GFDVDEQGIS, VIYADGRRSQYANSVK, GANGGMFDM [En_Gibbs]: nd (0 of 6 replicates).
GFDLESYGIS, VIYADGRRTFYADKVK, GQNAGTFDI [En_HC]: -0.50 (6 of 6 replicates).
GFSLNSYGIS, VIYSDGRRTFYGDSVK, GRTAGTFWS [GPLM_Gen]: nd (0 of 6 replicates).
GFDLNEYGIS, VIYADGMRTAYADSVK, GKVAGTFNV [En_HC]: -0.72 (6 of 6 replicates).
GFDLNEYGIS, VIYADGRRTFYSDSVK, GTVAGFFDV [En_HC]: 1.37 (1 of 6 replicates).
GFTLNSYGIS, VIYSDGRRTFYGDSFK, GRAAGTWDS [Ctrl]: nd (0 of 6 replicates).
GFDLNEYGIS, VIYADGRRTFYTDSVK, GEVAGTFDG [En_HC]: -2.42 (6 of 6 replicates).
GFTLNSYGIS, VIYSDGRRTSYGDSVK, GNAAGTFDS [Ctrl]: 0.70 (4 of 6 replicates).
GFGLNEYGIS, VIYSDGRRTFYGDSVK, GKAAGTFDS [GPLM_Gen]: 0.29 (6 of 6 replicates).
GFDLNEYGIS, VIYADGMRTYYADDVK, GNVAGTFDL [En_Gen]: -0.26 (6 of 6 replicates).

The first 6 entries again:

Variant GFTLNSYGIS, VIYSDGRRTFYGDSVK, RRAAGTLDS [Ctrl] showed 0.82 (1 of 6 replicates).
Variant GFDLNEYGIS, VIYADGIRTAYADNVK, GNVAGTFDV [En_Gen] showed -0.45 (6 of 6 replicates).
Variant GFTLNEYGIS, VIYSDGRRTFYGDSVK, GKTAGTFDL [GP_Gibbs] showed 0.39 (6 of 6 replicates).
Variant GFDLNEYGIS, VIYADGMRTQYADSVK, GNNAGTFDV [En_Gen] showed 1.61 (6 of 6 replicates).
Variant GFDLNEYGIS, VIYADGRRTSYIDSVK, GEIAGTFNV [En_HC] showed 0.78 (6 of 6 replicates).
Variant GFWLNEYGIS, VIYSDGRRTFYGDSVK, GQAAGTFDR [GP_Gen] showed 2.19 (1 of 6 replicates).